The values below are quoted from earlier work in PMC2788677 (Journal of medicinal chemistry, 2009).

Sequences of proteins named here, by UniProt entry; tags and fusion partners are left off.
UniProt P32300, whole entry: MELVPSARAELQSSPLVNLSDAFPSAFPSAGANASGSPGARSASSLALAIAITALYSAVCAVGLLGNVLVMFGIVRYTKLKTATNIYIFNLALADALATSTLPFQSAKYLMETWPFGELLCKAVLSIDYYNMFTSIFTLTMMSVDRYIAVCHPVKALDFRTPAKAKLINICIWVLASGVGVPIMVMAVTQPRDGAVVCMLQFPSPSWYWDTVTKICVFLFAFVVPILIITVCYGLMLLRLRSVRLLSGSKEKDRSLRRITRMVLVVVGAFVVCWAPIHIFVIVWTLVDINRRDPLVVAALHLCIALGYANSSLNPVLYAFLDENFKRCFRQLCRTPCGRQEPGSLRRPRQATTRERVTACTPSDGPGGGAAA

In this data set the target is DOR (Mus musculus, UniProt P32300). Particulars: read-out: IC50 (nM ± SEM) DOR; 0.15 nM [3H]DPDPE as radioligand; cited from earlier work.

For Dermorphin, the IC50 (in general, the concentration that inhibits the measured activity by half) is 197 ± 28 nM.
